Assay results taken from patent publication US4352807A, “Hexahydro-trans-pyridoindole neuroleptic agents” (Pfizer Inc., priority 1980, dated 1982).
Where two headings read alike, the source gives them in different places.

Chains of the proteins cited; added tags and fusions are not shown.
UniProt P61169, whole entry: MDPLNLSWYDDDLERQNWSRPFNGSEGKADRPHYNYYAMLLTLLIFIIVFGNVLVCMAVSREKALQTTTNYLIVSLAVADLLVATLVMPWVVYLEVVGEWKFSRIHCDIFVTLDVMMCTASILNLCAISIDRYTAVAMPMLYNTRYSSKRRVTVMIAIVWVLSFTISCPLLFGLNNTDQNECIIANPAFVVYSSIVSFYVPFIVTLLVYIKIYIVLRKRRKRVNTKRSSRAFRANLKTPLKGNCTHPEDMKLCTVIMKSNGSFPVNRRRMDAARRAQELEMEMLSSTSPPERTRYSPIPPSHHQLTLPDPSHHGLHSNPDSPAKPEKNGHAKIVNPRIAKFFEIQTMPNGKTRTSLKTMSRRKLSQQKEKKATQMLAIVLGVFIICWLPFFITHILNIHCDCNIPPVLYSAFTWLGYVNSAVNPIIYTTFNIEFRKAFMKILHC

Molecular target: T1, dopamine receptors (Rattus norvegicus, UniProt P61169)
T1 construct: brains were immediately dissected on an ice-cold glass plate to remove corpus striatum; from tissue; host or cells: rat corpus striatum, washed homogenate (Sprague-Dawley CD males)
Experiment: Inhibition of ^3 H-spiroperidol binding to dopamine receptors (rat corpus striatum homogenate)
Parameters: species or system rat (Sprague-Dawley CD)
Method: The procedure was as follows:
Rats (Sprague-Dawley CD males, 250-300 g., Charles River Laboratories, Wilmington, Mass.) were decapitated, and brains were immediately dissected on an ice-cold glass plate to remove corpus striatum (~100 mg./brain). Tissue was homogenized in 40 volumes (1 g.+40 ml). of ice-cold 50 mM. […] The tissue suspension was placed in a 37° C. water bath for 5 minutes to insure inactivation of tissue monoamine oxidase and then kept on ice until used. The incubation mixture consisted of 0.02 ml. inhibitor solution (the desired concentration of the derivative to be tested in stock solution). […] Tubes were incubated in sequence for 10 minutes at 37° C. in groups of three, after which 0.9 ml. of each incubation tube was filtered through Whatman FG/B filters using a high vacuum pump. Each filter was placed in a scintillation vial, 10 ml. of liquid scintillation fluor was added and each vial was vigorously vortexed for about five seconds. Samples were allowed to stand over night, until filters were translucent, vortexed again and then counted 1.0 minute for radioactivity. Binding was calculated as femtomales (10^-15 moles) of ^3 H-spiroperidol bound per mg. protein. […]

IC50	IC50 (read-out: IC50, inhibition of ^3 H-spiroperidol binding to dopamine receptors, rat corpus striatum, 0.5 nM ^3 H-spiroperidol, 10 min at 37° C.)	Structure (SMILES)
19 nM		O=C(NCCCCN1CC[C@H]2[C@H](C1)c1cc(F)ccc1N2c1ccc(F)cc1)c1ccccc1 (relative stereo) [Example 13, (±) 2-(N--benzoyl-1'-amino-n-but-4'-yl)]
	27 nM	Cc1ccc(S(=O)(=O)NCCCCN2CC[C@H]3[C@H](C2)c2cc(F)ccc2N3c2ccc(F)cc2)cc1 (relative stereo) [Example 16, (±) 2-(N--p-toluenesulfonyl-1'-amino-n-but-4'-yl)]
